Test results as given in patent US8859617B2, “Use of furan alkyl for preparing an antidiabetic drug” (Laboratoires Expanscience, priority 2004, dated 2014).

Key:
mice on HF/HS diet = assay: Intraperitoneal Glucose Tolerance Test (IPGTT); assay type: in vivo; details: preventive; TZD
[1] = tested on: GSH-S-transferase (target PXR); assay: mRNA analysis in the liver (Q-RT-PCR): GSH-S-transferase; assay type: in vivo, mice; details: TZD
Method: the liver, the mRNA expressions of 8 genes were determined in 5 mice of each group using real-time Q-RT-PCR analysis.

Compound: CN(CCOc1ccc(CC2SC(=O)NC2=O)cc1)c1ccccn1 (centres unmarked) [TZD, Rosiglitazone]
- IPGTT Area Under Curve value (AUC) (mice on HF/HS diet): no significant AUC reduction
- GSH-S-transferase (target PXR) mRNA [1]: ↑
